Tests used:
[1] = target: T1, FA peptide (N-terminal phenylalanine, penultimate alanine; rest of sequence not given); assay: fluorescence polarization
T1 construct: they may differ; Dye- or FITC-labelled in some assays; also called phenylalanine peptide; N-terminal FA peptide

[2] = target: T1, FA peptide (N-terminal phenylalanine, …); assay: binding polarization assay, ensemble measurement
[3] = target: T2, YA peptide (N-terminal tyrosine, penultimate alanine; rest of sequence not given); assay: binding polarization assay, ensemble measurement
T2 construct: they may differ; also called tyrosine peptide

[4] = target: T3, WA peptide (N-terminal tryptophan, penultimate alanine; rest of sequence not given); assay: binding polarization assay, ensemble measurement
T3 construct: they may differ; also called tryptophan peptide

[5] = target: T4, peptide having an N-terminal phenylalanine residue (rest of sequence not given); assay: single-molecule pulse analysis, ATTO 532-labeled ClpS2
[6] = target: T5, peptide having an N-terminal (unmodified) tyrosine residue (rest of sequence not given); assay: as above
T5 construct: these may be different peptides

[7] = target: T6, peptide having an N-terminal tryptophan residue (rest of sequence not given); assay: as above
[8] = target: T4, peptide having an N-terminal …; assay: as above; remark: listed apart in the source
[9] = target: T5, peptide having an N-terminal …; assay: as above; remark: listed apart in the source
[10] = target: T6, peptide having an N-terminal tryptophan …; assay: as above; remark: listed apart in the source
[11] = target: T1, FA peptide (N-terminal phenylalanine, …); assay: stopped-flow, complex mixed with excess unlabelled trap peptide
[12] = target: T7, FITC-labeled FA peptide FAKLDEESILKQK-FITC (C-terminal FITC); assay: fluorescence polarization, FITC-peptide with ClpS:streptavidin complex, 23 C
T7 peptide: FAKLDEESILKQK

[13] = target: T8, FITC-labeled YA peptide YAKLDEESILKQK-FITC (C-terminal FITC); assay: as above
T8 peptide: YAKLDEESILKQK

[14] = target: T9, FITC-labeled WA peptide WAKLDEESILKQK-FITC (C-terminal FITC); assay: as above
T9 peptide: WAKLDEESILKQK

[15] = target: T4, peptide having an N-terminal …; assay: single-molecule pulse analysis, ATTO 532-labeled ClpS2; histogram A
[16] = target: T5, peptide having an N-terminal …; assay: as above
[17] = target: T6, peptide having an N-terminal tryptophan …; assay: as above
[18] = target: T4, peptide having an N-terminal …; assay: single-molecule pulse analysis, ATTO 532-labeled ClpS2; histogram B
[19] = target: T5, peptide having an N-terminal …; assay: as above
[20] = target: T6, peptide having an N-terminal tryptophan …; assay: as above

B1: Agrobacterium tumifaciens ClpS2 variant 1 (atClpS2-V1) (designed binder)
chain: MSDSPVDLKPKPKVKPKLERPKLYKVMLLNDDYTPMSFVTVVLKAVFRMSEDTGRRVMMTAHRFGSAVVVVCERDIAETKAKEATDLGKEAGFPLMFTTEPEE
Question: How did the Kd [1] turn out when B1 was run?
Answer: 185 nM

Question: What about the Kd [2] of the same binder?
Answer: 743 nM

Question: What about the Kd [3] of the same binder?
Answer: 2050 nM

Question: What about the Kd [4] of the same binder?
Answer: 3510 nM

Question: What about the “mean pulse duration (u)” value [5] of the same binder?
Answer: 0.14 s

Question: What about the “mean pulse duration (u)” value [6] of the same binder?
Answer: 0.09 s

Question: What about the “mean pulse duration (u)” value [7] of the same binder?
Answer: 0.06 s

Question: And the “mean inter-pulse duration (u)” value [8]?
Answer: 3 s

Question: What about the “mean inter-pulse duration (u)” value [9] of the same binder?
Answer: 3.73 s

Question: What about the “mean inter-pulse duration (u)” value [10] of the same binder?
Answer: 3.94 s

Question: What about the koff [11] of the same binder?
Answer: 1.19 s⁻¹

Question: Does B1 bind [12]?
Answer: binds

Question: Does B1 bind [13]?
Answer: binds

Question: Does B1 bind [14]?
Answer: binds

Question: What about the “mean pulse duration (u)” value [15] of the same binder?
Answer: 0.15 s

Question: And the “mean pulse duration (u)” value [16]?
Answer: 0.09 s

Question: And the “mean pulse duration (u)” value [17]?
Answer: 0.06 s

Question: And the “mean pulse duration (u), as the axis of panel B is labelled” value (shortened to “mean pulse duration (u), as the axis”) [18]?
Answer: 0.09 s

Question: And the “mean pulse duration (u), as the axis” value [19]?
Answer: 0.06 s

Question: And the “mean pulse duration (u), as the axis” value [20]?
Answer: 0.04 s

B2: PS610 (Bis-atClpS2-V1, Linker 2) (designed binder)
chain: MSDSPVDLKPKPKVKPKLERPKLYKVMLLNDDYTPMSFVTVVLKAVFRMSEDTGRRVMMTAHRFGSAVVVVCERDIAETKAKEATDLGKEAGFPLMFTTEPEEGSAGSAAGSGEFMSDSPVDLKPKPKVKPKLERPKLYKVMLLNDDYTPMSFVTVVLKAVFRMSEDTGRRVMMTAHRFGSAVVVVCERDIAETKAKEATDLGKEAGFPLMFTTEPEEGHHHHHHHHHHGGGSGGGSGGGSGLNDFFEAQKIEWHEGGGSGGGSGGGSGLNDFFEAQKIEWHE
Question: For B2, which Kd [1] is on record?
Answer: 271 nM

From US20210364527A1, “Methods and compositions for protein sequencing” (QUANTUM SI, published 2021)
